# Assay: Cytotoxicity was evaluated against LS174T-stCPG2(Q)3-expressing cell clone
# Assay type: functional, Homo sapiens
# In short: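 LS174T colon cells stably transfected with surface-tethered mutant CPG2 (stCPG2(Q)3) plasmid; 2 × 10^6 cells seeded, confluent at 48 h. Compound added from DMSO stock in full medium, a similar dose re-added after 1 h, then 20 h more. Cells reseeded in quadruplicate at ~2 × 10^3/well, grown to control confluence; sulforhodamine-B at 590 nm, IC50 by interpolation.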
smiles,measurement,value
Nc1ccc(N(CCCl)CCCl)cc1,IC50,340 nM
Oc1ccc(N(CCCl)CCCl)cc1,IC50,3780 nM
